Laboratory results taken from PubChem BioAssay AID1979 (Broad Institute, 2009).
The entries are a selection whose mix differs from that of the whole data set. Activity calls are given as the source filed them.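 The calls were made as follows: active = growth inhibition above about 58% in most replicates (limit read from the data, passing the limit was not always enough); inconclusive = exactly half the replicates above a set limit; inactive = most replicates below a set limit.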

Assay: C. albicans growth inhibition with fluconazole, primary screen, CaCi-2 strain, Alamar Blue fluorescence (AID 1979);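 also: all wells also contain fluconazole at 8 µg/ml as a sub-toxic cotreatment; 0% = median of DMSO wells and 100% = median of geldanamycin control wells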
Settings: C. albicans CaCi-2 (fluconazole-resistant clinical isolate) + fluconazole, 48 h, stronger effect = higher value, concentration not given here

SMILES	growth inhibition
O=P1(Nc2ccccn2)COc2ccccc2OC1	inactive: -2.57%
CCC1=CC2Cc3nc4ccc(Cl)cc4c(N)c3C(C1)C2 (configuration not stated)	inactive: 5.75%
CCOP(=O)(NC(=NC(C)c1ccccc1)NC(C)c1ccccc1)OCC (configuration not stated)	inactive: 7.2%
O=[N+]([O-])c1cc([N+](=O)[O-])c(-n2nnc3ccccc32)c([N+](=O)[O-])c1	inactive: 20.7%
Clc1n[nH]nc1-c1nn[nH][15n]1	inactive: 1.1%
CC(C)(C)C(=O)NC(Sc1ncccn1)C(Cl)(Cl)Cl (configuration not stated)	inactive: 3%
COc1ccccc1CNC(=O)COC(=O)C(O)(c1ccccc1)c1ccccc1	inactive: 2.25%
O=[N+]([O-])c1cc([N+](=O)[O-])c(-c2cnn(-c3ccccc3)c2)c([N+](=O)[O-])c1	inactive: -2.01%
CC1(CBr)Cn2c(nc3ccccc3c2=O)S1 (configuration not stated)	inactive: -6.14%
CC(C)/C=N\N=C(\N)N[N+](=O)[O-]	inactive: -6.89%
COc1cc(C2NCCC3(OCCO3)C2(C)C)cc(OC)c1OC.O=[N+]([O-])c1cc([N+](=O)[O-])c(O)c([N+](=O)[O-])c1 (configuration not stated)	inactive: 1.69%
Cc1nn(-c2ccccc2)c2c1P(=O)(N1CCOCC1)N(C)C(c1ccccc1)=N2 (configuration not stated)	inactive: 15.5%
CC1CCC(C(C)C)C(OP(=O)(Nc2ccccn2)c2ccccc2)C1 (configuration not stated)	inactive: 15.5%
Cc1ccc(C(=O)OC2CN3CCC2CC3)cc1 (configuration not stated)	inactive: -9.31%
O=C(/C=C/c1ccccc1)OC1CN2CCC1CC2 (configuration not stated)	inactive: 0.0133%
O=[N+]([O-])c1cc([N+](=O)[O-])c(Nc2nnnn2CCO)c([N+](=O)[O-])c1	inactive: -4.6%
CN(C)C1(CNC(=O)c2ccc(S(C)(=O)=O)cc2)CCCCC1	inactive: 8.62%
CCOC(=O)C(CC)C1=NC(C)(C)Cc2ccccc21.O=[N+]([O-])c1cc([N+](=O)[O-])c(O)c([N+](=O)[O-])c1 (configuration not stated)	inactive: -3.56%
O=P1(Nc2ncccn2)COc2ccccc2OC1	inactive: -9.13%
COc1ccccc1OP(C)(=O)Nc1c(C)cccc1C (configuration not stated)	inactive: -14.3%
CN1CCCCC1COC(=O)C1(O)c2ccccc2CCc2ccccc21 (configuration not stated)	inactive: -28.4%
O=P1(Nc2ccc(Br)cn2)COc2ccccc2OC1	inactive: 13.1%
O=[As](O)(c1cccs1)c1cccs1	inactive: -1.31%
Cc1ccc(OCC(=O)OC2CN3CCC2CC3)cc1 (configuration not stated)	inactive: -5.22%
CP(=O)(Nc1ccc(SC(F)(F)F)cc1)Oc1ccccc1 (configuration not stated)	inactive: -7.71%
Nc1cccc([As](=O)(O)c2ccccc2)c1	inactive: -3.5%
CCCOc1ccc(NP(C)(=O)Oc2ccc(Cl)cc2)cc1 (configuration not stated)	inactive: -2.73%
